Measurements: ChEMBL document CHEMBL3232795, “Using 'biased-privileged' scaffolds to identify lysine methyltransferase inhibitors” (Bioorg Med Chem, 2014)

Columns and labels:
[1] = target: T1, Histone-lysine N-methyltransferase SETD7 (Homo sapiens, UniProt Q8WTS6); assay: Inhibition of 50 nM SET7 (unknown origin)-mediated methylation of histone H3(1-20)cys-biotin at 15 to 50 uM after 5 mins by scintillation proximity assay in presence of [3H]-S-adenosyl-methionine
T1 sequence (Q8WTS6 whole entry): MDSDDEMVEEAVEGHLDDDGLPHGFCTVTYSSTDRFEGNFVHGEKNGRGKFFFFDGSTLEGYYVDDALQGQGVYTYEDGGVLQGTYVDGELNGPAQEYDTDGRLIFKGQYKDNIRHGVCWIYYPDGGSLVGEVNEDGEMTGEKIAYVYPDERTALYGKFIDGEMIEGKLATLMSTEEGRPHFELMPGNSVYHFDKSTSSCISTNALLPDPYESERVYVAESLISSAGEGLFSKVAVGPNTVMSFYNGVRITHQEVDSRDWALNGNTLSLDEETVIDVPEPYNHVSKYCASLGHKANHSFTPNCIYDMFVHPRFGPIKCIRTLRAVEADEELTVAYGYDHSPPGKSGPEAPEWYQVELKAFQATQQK

[2] = target: T1, Histone-lysine N-methyltransferase SETD7; assay: Inhibition of methyl-transferase activity in GST-tagged recombinant SET7/9 (unknown origin) expressed in Escherichia coli BL21 using H3(1-20)-cys-biotin as substrate preincubated for 5 mins followed by substrate addition by ELISA
[3] = target: T1, Histone-lysine N-methyltransferase SETD7; assay: Inhibition of 100 nM SET7 (unknown origin)-mediated methylation of histone H3(1-20)cys-biotin at 15 to 50 uM after 5 mins by scintillation proximity assay in presence of [3H]-S-adenosyl-methionine
[4] = target: T1, Histone-lysine N-methyltransferase SETD7; assay: Inhibition of SET7 (unknown origin)-mediated methylation of histone H3(1-20)cys-biotin after 5 mins by scintillation proximity assay in presence of [3H]-S-adenosyl-methionine
[5] = target: T1, Histone-lysine N-methyltransferase SETD7; assay: Inhibition of 10 nM SET7 (unknown origin)-mediated methylation of histone H3(1-20)cys-biotin at 15 to 50 uM after 5 mins by scintillation proximity assay in presence of [3H]-S-adenosyl-methionine

Work on `O=C(O)c1cccc(NCc2cccc(-n3ccc4c(-c5ccc(C(F)(F)F)cc5)cccc43)c2)c1` yielded an IC50 [1] of 22.5 µM, an IC50 [2] of 9.93 µM and an IC50 [3] of 19.5 µM. The IC50 [4] was 22.5 µM and the IC50 [5] was 19 µM.
